Experimental data as given in patent US20220296676A1 (priority 2020, published 2022).
Where two headings read alike, the source gives them in different places.

System: human coronavirus (HCoV) 229E

| Compound | SI (CC50/EC50) | SI (CC50/EC50) (MRC-5 cells, HCoV 229E) |
| --- | --- | --- |
| CCC(CC)COC(=O)[C@H](C)N[P@](=O)(OC[C@H]1O[C@@](C#N)(c2ccc3c(N)ncnn23)[C@H](O)[C@@H]1O)Oc1ccccc1 [Remdesivir, reference compound] | 1490.62 |  |
| C/C=C/C[C@@H](C)[C@@H](O)[C@H]1C(=O)N[C@@H](CC)C(=O)N(C)[C@H](SCCN(C)C)C(=O)N(C)[C@@H](CC(C)(C)O)C(=O)N[C@@H](C(C)C)C(=O)N(C)[C@@H](CC(C)C)C(=O)N[C@@H](C)C(=O)N[C@H](C)C(=O)N(C)[C@@H](CC(C)C)C(=O)N(C)[C@@H](CC(C)C)C(=O)N(C)[C@@H](C(C)C)C(=O)N1C [WS-635] |  | 9.07 |
